Data published in patent US20200347127A1 (CRESCENDO BIOLOGICS, published 2020).
Where two headings read alike, the source gives them in different places.

Chains of the proteins cited; added tags and fusions are not shown. Residues count along the entry.
UniProt Q16552, 24-155: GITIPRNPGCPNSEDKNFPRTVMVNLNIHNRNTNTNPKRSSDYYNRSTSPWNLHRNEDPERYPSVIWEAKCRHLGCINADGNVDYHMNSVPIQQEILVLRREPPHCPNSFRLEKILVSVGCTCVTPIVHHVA

Assays:
recombinant human IL-17A [1] = target: T1, recombinant human IL-17A (human, UniProt Q16552, in part); assay: SPR (BIAcore T200), IL-17A coupled to CM5 chip, single-cycle kinetics
T1 construct: Bought recombinant protein (Peprotech AF-200-17); also called Peprotech AF-200-17

recombinant human IL-17A [2] = target: T1, recombinant human IL-17A; assay: cell-based or functional assay
recombinant human IL-17A [3] = target: T1, recombinant human IL-17A; assay: cell-based or functional assay; remark: listed apart in the source
recombinant human IL-17A [4] = target: T1, recombinant human IL-17A; assay: SPR (BIAcore T200), IL-17A coupled to CM5 chip, single-cycle kinetics; remark: listed apart in the source
recombinant human IL-17A [5] = target: T1, recombinant human IL-17A; assay: competition ELISA, IL-17A binding to coated IL-17RA-Fc
recombinant human IL-17A [6] = target: T1, recombinant human IL-17A; assay: as above; remark: listed apart in the source

Kd (recombinant human IL-17A [1]): 173 nM
koff (recombinant human IL-17A [1]): 0.00594 s⁻¹
kon (recombinant human IL-17A [1]): 34300 M⁻¹ s⁻¹
Cell assay IC50 (nM), IL-17A-induced IL6 release from HT1080 (recombinant human IL-17A [2]): > 1000 nM
Cell assay IC50 (nM), IL-17A-induced IL6 release from HT1080 (recombinant human IL-17A [3]): > 1000 nM
Kd (recombinant human IL-17A [4]): 173 nM
koff (recombinant human IL-17A [4]): 0.00594 s⁻¹
kon (recombinant human IL-17A [4]): 34300 M⁻¹ s⁻¹
IC50 (recombinant human IL-17A [5]): 230 nM
IC50 (recombinant human IL-17A [6]): 230 nM
B1: Family 3 (clone 3.1) (VHH)
VHH: QVQLVQSGAEVKKPGASVKVSCKASGYTFTGYYMHWVRQAPGQGLEWMGWINPNSGGTNYAQKFQGRVTMTRDTSISTAYMELSRLRSDDTAVYYCASMDRDYYDTSGYFGWFDSWGQGTLVTVSS
notes: Human single VH domain from the naive in vitro library; also called parent Clone 3.1; VH 3.1.1
